The list is not random: actives were taken first. Their share in the collection is about 3.7%.
ClpP mod – qHTS Assay for Activators of ClpP. ATP-dependent Clp protease proteolytic subunit (Bacillus subtilis (strain 168)), P80244. purified B. subtilis ClpP, FRET peptide cleavage, 20 min. Potency, µM (series often up to 57.5 µM), inactives show top-dose activity change, negative = active. 340,000 tested, 1.9% active. AID 651965, 2013; active = well fitted falling curve with a large enough effect; inconclusive = small, poorly fitted or top-dose-only effect; inactive = no such curve, though single readings can be large or run the other way; note: potency is the fitted concentration of half-maximal effect; the source files actives as falling curves though it sought activators and does not explain the sign; nearly all actives have a fitted effect of over 65% in size
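Buffer: 100 mM Tris/HCl pH8, 100 mM KCl, 0.05% low protease BSA, 2.5% glycerol, 0.01% Tween-20. ClpP 10 microg/mL final; 20 min RT; delta FRET normalized to ADEP and DMSO controls.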
IL2 activator – activators of IL-2. IL-2 activation reporter assay, cell-based qHTS; stimulated with anti-CD3/CD4/CD28 beads; in transgenic mouse T cells. activation, % (series mostly up to about 46 µM). 360,000 tested, 0.065% active. AID 652025; in the data active = activation above about 50%; inconclusive = mostly about 30% to 49%; note: 0% is about no effect
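Quantitative HTS in unstimulated transgenic mouse T cells, with memory T cells as non-tolerant control and PMA/ionomycin as tolerance-bypass control. Compound pretreatment lasted 60 minutes before 18 h bead stimulation; EGFP/DsRed fluorescence read.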
A549 tox – A549 cytotoxicity, counter-screen for Nrf2 inhibitors. A549 ARE-Fluc cells, CellTiter-Fluor viability, 18-24 h. Potency, µM (doses to about 46 µM), for the others: top-dose activity change, negative = cytotoxicity, most hits filed as inhibitors. 390,000 tested, 0.16% active; note: potency is the fitted concentration of half-maximal effect; % is set by controls: 0 for no effect and ±100 for the full control effect
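A549 ARE-Fluc cells in 5% FBS OPTI-MEM, 5000 cells/well, rested 2 h then exposed to compounds in concentration-response for 18-24 h at 37 °C. Viability by CellTiter-Fluor fluorescence (Ex 405/Em 525) after 30 min; luciferase luminescence (BugLite, 15 min, RT) read afterwards.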
Nrf2 ARE act – activates Nrf2 signaling; AID 624171; Potency, µM (series often up to 46.1 µM), for the others: at the top dose activation, actives largely listed as activators; 410,000 tested, 0.31% active; AREc32 ARE-luciferase reporter (MCF7-derived line), luminescence, 24 h; note: potency is the fitted concentration of half-maximal effect; % of control where 0% means no effect; nearly all actives have a fitted effect of over 65% in size
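Cells of the AREc32 ARE-luciferase line are plated in OPTI-MEM containing 5% FBS and left overnight at 37 deg C. Compounds are pinned in, incubation continues 24 hr, and firefly luciferase signal is then measured.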
miR-21 reporter – miR-21 reporter, rising signal; HeLa miR-21 FLuc reporter, luciferase, 48 h; Potency, µM (titrated, usually from 38.3 µM), without a hit: top-dose reporter change, positive = more light; AID 2288; 340,000 tested, under 10 active; active = well fitted rising curve with a large enough effect; inconclusive = small, poorly fitted or top-dose-only effect; inactive = no such curve, though single readings can be large or run the other way;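 further: % of control where 0% means no effect; miR-21 action dims this reporter so a rising signal means less miR-21 action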
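HeLa cells stably expressing CMV-driven firefly luciferase with a downstream miR-21 binding sequence, endogenously expressing miR-21, were treated with titrations (up to about 40uM final) for 48 hours at 37 degree Celsius. Luciferase luminescence was read after lysis.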
Nrf2 inh – blocks Nrf2 signaling; A549 ARE-Fluc reporter, luciferase luminescence, 18-24 h; Potency, µM (doses to about 46 µM), for inactives: at the top dose activity change, negative = inhibition, usual class: inhibitors; 360,000 tested, 2.1% active; AID 504444; note: potency is the fitted concentration of half-maximal effect; % is set by controls: 0 for no effect and ±100 for the full control effect; nearly all actives have a fitted effect of over 60% in size
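Two sequential reads on A549 ARE_Fluc cells exposed to compound for 18-24 h: a CellTiter-Fluor fluorescence read for viability, then a luciferase luminescence read for Nrf2/ARE activity.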
Active calls of the source: *; ? = inconclusive; · = no result. Unless noted, calls come from the whole dose curve; as a rule, active = well fitted curve in the direction sought with a large enough effect; inconclusive = small, poorly fitted or top-dose-only effect, or another doubt; inactive = no such curve, though single readings can be large; an effect the other way counts as inactive or inconclusive.

Amino acid sequences for entries named in this document (tags omitted).
ATP-dependent Clp protease proteolytic subunit (Bacillus subtilis (strain 168)), P80244, UniProt P80244, whole entry, looked up: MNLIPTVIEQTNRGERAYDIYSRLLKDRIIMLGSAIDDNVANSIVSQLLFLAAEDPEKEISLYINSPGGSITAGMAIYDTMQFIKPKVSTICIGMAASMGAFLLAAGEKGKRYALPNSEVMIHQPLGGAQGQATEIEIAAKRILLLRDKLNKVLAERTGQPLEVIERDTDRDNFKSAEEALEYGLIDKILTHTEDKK

Letters: A = ClpP mod; B = IL2 activator; C = A549 tox; D = Nrf2 ARE act; E = miR-21 reporter; F = Nrf2 inh
(1) CCOC(=O)/C(C#N)=C/c1c(N2CCN(c3ccc(OC)cc3)CC2)nc2c(C)cccn2c1=O
  A: 32µM* | B: -3 | C: ? | D: 6% | E: 0% | F: ?

(2) CCNC(=O)/C(C#N)=C/c1c(N2CCCCCC2)nc2c(C)cccn2c1=O
  A: 16µM* | B: -5 | C: -30% | D: 0% | E: 5% | F: ?

(3) Cc1cccn2c(=O)c(/C=C(\C#N)C(=O)NCc3ccco3)c(N3CCOCC3)nc12
  A: · | B: 1 | C: -16% | D: 2% | E: 6% | F: -14%

(4) Cc1cccn2c(=O)c(C=O)c(N3CCN(c4ccc(F)cc4)CC3)nc12
  A: -1% | B: 1 | C: -10% | D: 6% | E: -3% | F: 16µM*

(5) N#C/C(=C\c1c(N2CCC(C(N)=O)CC2)nc2ccccn2c1=O)C(=O)NCc1ccco1
  A: 25µM* | B: 0 | C: -22% | D: -1% | E: 1% | F: 0%

(6) C=CCn1c(COc2cccc3cccnc23)nnc1SCC(=O)O
  A: 28µM* | B: -1 | C: -11% | D: 0% | E: -1% | F: ·

(7) Cc1ccccc1OCc1nnc(SCC(=O)O)n1Cc1ccccc1
  A: · | B: 4 | C: -3% | D: 0% | E: -1% | F: 2%

(8) C=CCn1c(COc2cccc3ccc(C)nc23)nnc1SCC(=O)O
  A: 35µM* | B: -3 | C: -13% | D: 0% | E: 0% | F: 6%

(9) COc1ccc(Nc2nc(C#N)nc(NC3CCCC3)n2)cc1
  A: · | B: · | C: -3% | D: · | E: · | F: ?

(10) CCc1cccc(NC(=O)CCc2nc3cccnc3n2-c2ccccc2)c1
  A: -1% | B: · | C: -7% | D: -2% | E: -1% | F: -30%

(11) Cc1c(Cl)c([N+](=O)[O-])nn1CCCC(=O)N1CCN(c2ccccc2)CC1
  A: 1% | B: -1 | C: -4% | D: 0% | E: -4% | F: 0%

(12) Cc1c(Br)c([N+](=O)[O-])nn1CCCC(=O)N1CCN(c2ccccc2)CC1
  A: 14µM* | B: 0 | C: -3% | D: 0% | E: -13% | F: 3%

(13) Cc1ccccc1C=Nc1ccccc1C(N)=O
  A: 28µM* | B: 2 | C: -1% | D: 0% | E: 19% | F: -8%

(14) NC(=O)c1ccccc1N=Cc1cccnc1
  A: · | B: 0 | C: 2% | D: 0% | E: · | F: -12%

(15) COc1cccc(C=Nc2ccccc2C(=O)Nc2ccccc2)c1O
  A: 22µM* | B: -1 | C: -4% | D: 3% | E: -40% | F: ?

The list goes on, starting with the last three of the part before.
Letters: A = ClpP mod; B = IL2 activator; C = A549 tox; D = Nrf2 ARE act; E = miR-21 reporter; F = Nrf2 inh
(13) Cc1ccccc1C=Nc1ccccc1C(N)=O
  A: 28µM* | B: 2 | C: -1% | D: 0% | E: 19% | F: -8%

(14) NC(=O)c1ccccc1N=Cc1cccnc1
  A: · | B: 0 | C: 2% | D: 0% | E: · | F: -12%

(15) COc1cccc(C=Nc2ccccc2C(=O)Nc2ccccc2)c1O
  A: 22µM* | B: -1 | C: -4% | D: 3% | E: -40% | F: ?

(16) NC(=O)c1ccccc1N=Cc1ccccn1
  A: 25µM* | B: -2 | C: -3% | D: 0% | E: -1% | F: -14%

(17) Cc1ccc(C=Nc2ccccc2C(N)=O)cc1
  A: 32µM* | B: 0 | C: -13% | D: 2% | E: -9% | F: ?

(18) Cc1ccc(NC(=O)CSc2nc(=O)n(Cc3cccnc3)c3c2CCC3)cc1F
  A: -1% | B: · | C: 2% | D: -1% | E: 0% | F: ·

(19) COc1ccc(CCNC(=O)CCCn2nc(C)c3sc4ccccc4c3c2=O)cc1OC
  A: -7% | B: · | C: ? | D: 0% | E: -59% | F: ?

(20) Cc1ccc(C=Nc2ccccc2C(=O)Nc2ccccc2)cc1
  A: 28µM* | B: -1 | C: -6% | D: 0% | E: -30% | F: 9%

(21) CC(=O)Nc1c([N+](=O)[O-])cc2[nH]c(=O)[nH]c2c1[N+](=O)[O-]
  A: · | B: 0 | C: 1% | D: 16% | E: 0% | F: -23%

(22) O=c1[nH]c2cc([N+](=O)[O-])c(NCCO)c([N+](=O)[O-])c2[nH]1
  A: · | B: 0 | C: 13µM* | D: 1% | E: -29% | F: -13%

(23) CCS(=O)(=O)N1CCC(C(=O)Oc2ccccc2Br)CC1
  A: 28µM* | B: -1 | C: 3% | D: 2% | E: 6% | F: 6%

(24) CCOC(=O)C1(Cc2cccc(Cl)c2)CCCN(C(=O)c2cnn(CC)c2)C1 (stereo unspecified)
  A: 32µM* | B: -2 | C: -6% | D: 2% | E: -18% | F: 13%

(25) CNc1nc2c(C)cccn2c(=O)c1C=NCc1ccccc1
  A: 28% | B: 1 | C: 0% | D: -1% | E: -4% | F: -2%

(26) CN=Cc1c(NC)nc2c(C)cccn2c1=O
  A: 40µM* | B: -1 | C: 4% | D: -1% | E: 0% | F: ·

(27) Cc1cccn2c(=O)c(C=Nc3ccccc3)c(NCCO)nc12
  A: 4% | B: 1 | C: 0% | D: -1% | E: -1% | F: 11%

Screening data deposited in PubChem by National Center for Advancing Translational Sciences (NCATS).
